Results taken from ChEMBL document CHEMBL5518175, “Design, synthesis, and biological evaluation of HDAC6 inhibitors targeting L1 loop and serine 531 residue” (Eur J Med Chem, 2024).
Activity calls are given as the source filed them. The rule behind the calls is not given here.

Sequences of proteins named here, by UniProt entry; tags and fusion partners are left off.
UniProt Q13547, whole entry: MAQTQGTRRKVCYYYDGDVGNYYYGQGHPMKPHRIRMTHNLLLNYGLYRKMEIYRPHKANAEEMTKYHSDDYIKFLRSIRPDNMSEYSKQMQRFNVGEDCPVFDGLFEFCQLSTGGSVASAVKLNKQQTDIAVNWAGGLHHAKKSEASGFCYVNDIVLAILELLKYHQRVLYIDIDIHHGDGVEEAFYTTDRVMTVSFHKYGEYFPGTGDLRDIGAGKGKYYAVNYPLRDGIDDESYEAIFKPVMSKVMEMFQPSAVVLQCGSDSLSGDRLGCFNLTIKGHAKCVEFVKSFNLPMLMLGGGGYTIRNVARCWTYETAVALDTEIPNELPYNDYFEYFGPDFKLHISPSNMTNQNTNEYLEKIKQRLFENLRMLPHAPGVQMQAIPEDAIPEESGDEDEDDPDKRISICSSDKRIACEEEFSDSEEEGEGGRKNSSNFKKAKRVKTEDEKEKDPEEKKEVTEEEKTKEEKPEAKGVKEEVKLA

Molecular target: Histone deacetylase 1 (Homo sapiens, UniProt Q13547)
Assay: Inhibition of HDAC1 in human NCI-H1975 cells assessed as increase in Histone H3 acetylation upto 5 uM incubated for 24 hrs by Western blotting analysis
Format: cell-based

In the case of `O=C(NO)c1ccc(CN(Cc2ccccc2)C(=O)c2ccccc2)cc1`, the inhibition is reported as “inactive”.
